Screening data from PubChem BioAssay.
Only some compounds are listed: those with a hit (about 2.8% of all), similar ones and a draw of the others.
UUG fidelity = yeast start codon fidelity modulation | S. cerevisiae UUG-firefly luciferase reporter, luminescence/redox ratio | activity score, % at 18.7 µM | 0.13% of 350,000 active | AID 602363;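 active means replicate mean at a twofold rise or more, about +100% in these data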;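 further: firefly luciferase made from a UUG start codon reports start codon fidelity; reporter light over untreated wells divided by growth signal over untreated wells; some hits fall short of that in this replicate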
miR122 inh = inhibitors of miR-122 in Huh7 cells | Huh7 miR-122 Renilla luciferase sensor, 48 h; neutral wells = 0, positive control = 100 | activation (reporter increase), % at 12.5 µM | actives 0.3% (n = 340,000);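 active means mean replicate activation score at least 90 and every replicate individually at or above 90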;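 further: higher luciferase means less miR-122 activity so hits act as miR-122 inhibitors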
esBAF inh = inhibitors of esBAF chromatin remodeling in mouse ES cells; actives 2% (n = 350,000); reporter increase, % at 12.5 µM; Bmi1-luciferase knock-in reporter, 24 h; 100% = twice the neutral-well signal; in the data active means activation above about 40%;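 further: 0% = median of the plate's neutral control wells and 100% = double that signal; a rise in the Bmi1 reporter signal indicates esBAF inhibition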
Wnt bcat act = Wnt/beta-catenin pathway activation | actives 1.2% (n = 300,000) | activation, % at 9.35 µM | Wnt/beta-catenin reporter cell assay, activator, plate reader; in the data active means activation above about 30%, passing the limit was not always enough;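 further: 0% = neutral control wells and 100% = positive control wells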
MITF TRPM1 HTS = increases MITF-driven TRPM1 promoter luciferase signal | SK-MEL-5 TRPM1-promoter luciferase, 24 h; % of positive control, neutral wells = 0 | activation, % at 12.5 µM | actives 0.75% (n = 300,000) | AID 588334;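 active means mean activation of at least 80% with every replicate also reaching 80%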;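 further: 0% = neutral control wells and 100% = parthenolide positive control wells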
PglD inh = blocks C. jejuni PglD acetyltransferase activity | purified PglD enzyme, DTNB colorimetric CoA detection | inhibition, % at 12.5 µM | actives 0.098% (n = 360,000) | AID 602405; in the data active means inhibition above about 16%, passing the limit was not always enough
PglD inh SP = confirmation of Campylobacter jejuni PglD acetyltransferase inhibitors; shares compounds with PglD inh; Purified C. jejuni PglD, DTNB absorbance 412 nm; inhibition, % at 20 µM; 320 tested, under 10 active;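 active means mean inhibition across replicates of at least 20% with every single replicate also at 20% or more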;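 further: initial rate of CoA release by acetyl transfer from AcCoA to the UDP-4-amino sugar; 0% = median of neutral control wells and 100% = median of positive control wells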
An asterisk follows results filed as active; [ ] = remark or other dose.

Start of the listing, in advance:
`CC(C)C(=O)Nc1ccc2c(c1)C(=O)N(C)[C@@H]1CC[C@@H](CC(=O)N[C@@H](C)c3ccccc3)O[C@@H]1CO2` gave UUG fidelity 6, miR122 inh 70[16.7 µM], esBAF inh 0 and PglD inh 0.
C[C@H]1CN([C@@H](C)CO)C(=O)c2cc(NS(=O)(=O)c3ccc(Cl)cc3)ccc2O[C@@H]1CN(C)C(=O)Nc1ccc2c(c1)OCO2 was read as UUG fidelity 12, miR122 inh -15[16.7 µM], esBAF inh -2 and PglD inh 2.
For Cn1nc([N+](=O)[O-])nc1N1CCOCC1 the results were UUG fidelity -14, miR122 inh -4, esBAF inh 13, Wnt bcat act 3, MITF TRPM1 HTS -6, PglD inh 21* and PglD inh SP 1.

Results, previewed entries included:
`CC(C)C(=O)Nc1ccc2c(c1)C(=O)N(C)[C@@H]1CC[C@@H](CC(=O)N[C@@H](C)c3ccccc3)O[C@@H]1CO2` gave UUG fidelity 6, miR122 inh 70[16.7 µM], esBAF inh 0 and PglD inh 0.
C[C@H]1CN([C@@H](C)CO)C(=O)c2cc(NS(=O)(=O)c3ccc(Cl)cc3)ccc2O[C@@H]1CN(C)C(=O)Nc1ccc2c(c1)OCO2 was read as UUG fidelity 12, miR122 inh -15[16.7 µM], esBAF inh -2 and PglD inh 2.
For Cn1nc([N+](=O)[O-])nc1N1CCOCC1 the results were UUG fidelity -14, miR122 inh -4, esBAF inh 13, Wnt bcat act 3, MITF TRPM1 HTS -6, PglD inh 21* and PglD inh SP 1.
`O=S(=O)(NC1CCN(Cc2ccccc2)CC1)c1ccc(F)c(F)c1` gave UUG fidelity -16, miR122 inh -3, esBAF inh -6, Wnt bcat act -3, PglD inh 22* and PglD inh SP 3.
Screening CO[C@H]1CN(C)C(=O)c2cc(NC(=O)c3cc(C)on3)ccc2OC[C@H](C)NC[C@H]1C returned esBAF inh -3 and PglD inh -1.
Screening Cc1cccc(NC(=O)CN(C)C(=O)C2CC2)c1C returned UUG fidelity -15, miR122 inh -10, esBAF inh 0, Wnt bcat act -1, MITF TRPM1 HTS -2, PglD inh 22* and PglD inh SP 4.
Screening O=c1c2c([nH]c3ccccc13)CCCC2 returned UUG fidelity -13, miR122 inh -4, esBAF inh -5, MITF TRPM1 HTS 10 and PglD inh 1.
`CC(C)(C)C1CCc2[nH]c3ccccc3c(=O)c2C1` (centres undefined) gave UUG fidelity -14, miR122 inh -3, esBAF inh 20, MITF TRPM1 HTS 26, PglD inh 28* and PglD inh SP -2.
Screening C[C@@H]1CN([C@@H](C)CO)S(=O)(=O)c2ccc(/C=C/c3ccccc3)cc2O[C@@H]1CN(C)C(=O)C1CC1 returned UUG fidelity 0, miR122 inh -20[16.7 µM], esBAF inh -4 and PglD inh 0.
Screening COC(=O)C1SCC2C(=O)N(Cc3ccc(F)cc3)CC(=O)N21 (centres undefined) returned UUG fidelity -14, miR122 inh -1, Wnt bcat act 5, MITF TRPM1 HTS -18, PglD inh 26* and PglD inh SP 5.
For COC(=O)C1SCC2C(=O)N(Cc3cccc(C)c3)CC(=O)N21 (centres undefined) the results were UUG fidelity -5, miR122 inh 2, Wnt bcat act -1, MITF TRPM1 HTS 8 and PglD inh -27.
Screening OC(CC#CCN1CCCCC1)(c1ccccc1)c1ccccc1 returned UUG fidelity 6, miR122 inh -3, esBAF inh -4, Wnt bcat act -1, MITF TRPM1 HTS -2, PglD inh 27* and PglD inh SP -10.
Screening O=C(C[C@@H]1CC[C@@H](NC(=O)C2CC2)[C@@H](CO)O1)Nc1nccs1 returned UUG fidelity -20, esBAF inh -3 and PglD inh 10.
For CCN(Cc1cccc(OC)c1)CC1CCCN(CCc2cccc(OC)c2)C1 (centres undefined) the results were UUG fidelity 0, miR122 inh -4, esBAF inh 1, Wnt bcat act -1, MITF TRPM1 HTS 11, PglD inh 22* and PglD inh SP -14.
CCOc1cccc(CN(CC)CC2CCCN(CCc3cccc(OC)c3)C2)c1O (centres undefined) was read as UUG fidelity 11, miR122 inh -2, esBAF inh -13, Wnt bcat act -2, MITF TRPM1 HTS -11 and PglD inh 1.
Screening COCC(=O)Nc1ccc2c(c1)[C@@H]1C[C@H](CC(=O)NCc3ccc(OC)cc3)O[C@H](CO)[C@@H]1O2 returned UUG fidelity 34, miR122 inh 1[16.7 µM], esBAF inh -2 and PglD inh -1.
O=C(NC1CCCCC1)c1cccc(NC(=O)c2ccccc2Cl)c1 was read as UUG fidelity -20, miR122 inh 2, esBAF inh -2, Wnt bcat act -3, PglD inh 22* and PglD inh SP 1.
For O=C(NC1CC1)c1cccc(NC(=O)C2CCCCC2)c1 the results were UUG fidelity -14, miR122 inh -1, esBAF inh -1, Wnt bcat act -2, MITF TRPM1 HTS -2 and PglD inh -1.
For C[C@@H]1CN([C@@H](C)CO)C(=O)c2cc(C#Cc3ccncc3)cnc2O[C@H]1CN(C)Cc1ccncc1 the results were UUG fidelity 5, miR122 inh -6[16.7 µM] and esBAF inh 4.
For COC(=O)c1cccc(NC(=S)NCCC2=CCCCC2)c1 the results were UUG fidelity -27, esBAF inh 2, MITF TRPM1 HTS -2, PglD inh 66* and PglD inh SP 2.
Screening C[C@@H]1CN([C@H](C)CO)C(=O)c2cc(NC(=O)CCC(F)(F)F)ccc2O[C@@H]1CN(C)Cc1ccc(C(=O)O)cc1 returned UUG fidelity -9, miR122 inh 7[16.7 µM], esBAF inh -1 and PglD inh 0.
CCCNC(=O)Nc1ccc2c(c1)OC[C@H](C)N(C(=O)C1CC1)C[C@H](C)[C@@H](OC)CN(C)C2=O was read as UUG fidelity 4, miR122 inh 11[16.7 µM], esBAF inh -11 and PglD inh -2.
For CO[C@H]1CN(C)C(=O)c2ccc(NC(=O)Nc3cccc(Cl)c3)cc2OC[C@@H](C)NC[C@H]1C the results were UUG fidelity 5, miR122 inh -12[16.7 µM], esBAF inh 0 and PglD inh 4.
For CC(c1ccccc1)n1c(CO)nc2ccccc21 (centres undefined) the results were UUG fidelity -24, miR122 inh -4, esBAF inh 7, Wnt bcat act 0, MITF TRPM1 HTS 0, PglD inh 67* and PglD inh SP 2.
Screening Cc1nc2ccccc2n1C(C)c1ccccc1 (centres undefined) returned UUG fidelity -8, miR122 inh -2, esBAF inh 2, Wnt bcat act -1, MITF TRPM1 HTS -5 and PglD inh -3.
`Cc1ccc(S(=O)(=O)N(C)C[C@H]2OCCCC[C@H](C)Oc3ccc(NC(=O)C4CCCCC4)cc3C(=O)N([C@@H](C)CO)C[C@@H]2C)cc1` gave UUG fidelity 4, miR122 inh -7[16.7 µM], esBAF inh 0 and PglD inh 1.
